Apparent affinities of Ab-14 variants for a coronavirus HR2 peptide

From the AlphaSeq antibody data of Engelhart et al. 2022 (doi:10.1038/s41597-022-01779-4), copy in the FLAb collection.

The target is the same throughout: PDVDLGDISGINAS, from the HR2 region of SARS-CoV-2 spike.

Parent: Ab-14, a human scFv built as VH, the linker GGGGSGGGGSGGGGS, VL. Only the CDRs of the light chain vary.
VH: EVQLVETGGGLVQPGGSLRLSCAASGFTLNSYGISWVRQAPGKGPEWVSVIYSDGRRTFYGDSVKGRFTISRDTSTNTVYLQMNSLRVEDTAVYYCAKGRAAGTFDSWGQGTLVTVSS
VL: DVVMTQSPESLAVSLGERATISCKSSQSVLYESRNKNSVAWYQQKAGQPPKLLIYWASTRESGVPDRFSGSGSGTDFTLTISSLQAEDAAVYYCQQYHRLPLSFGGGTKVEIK

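The parent was found by panning a naive human phage display library on the peptide. The library (AAYL50) carries one to three amino acid substitutions per variant, with no insertions or deletions. Affinity was read by AlphaSeq, a pooled yeast mating assay with surface-displayed partners. The frequency of each diploid, read from paired DNA barcodes, reflects how well the two displayed proteins bind. Each replicate has its own calibration line, from reference interactions of the BCL2 family. Each pool was mated in three replicate cultures.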

Positions count from residue 1 of the parent VL; S26I puts I in place of S. Scale: log10 of Kd in nM, estimated from mating counts; low values are strong binders. The mean shown is taken over the replicates in which the pair was detected. Where no diploid with the target was found in that replicate, the entry reads "n.d.": below detection, most likely a poor binder, though not proof of it.

| changes | replicates, log10 nM | mean log10 Kd (nM) | empty controls |
|---|---|---|---|
| S26I Y31K V39A | n.d. n.d. n.d. | n.d. | 2/9 (3.81) |
| Y97S | n.d. 3.36 4.49 | 3.93 | 4/9 (4.41) |
| Q27C V29Q Q96W | 1.75 1.66 1.79 | 1.73 | 1/9 (4.27) |
| S25D S26Q L102Q | 1.05 0.92 0.93 | 0.97 | 0/9 |
| S28L T59V E61D | 4.97 5.42 4.13 | 4.84 | 2/9 (5.45) |
| S58H S62I H98Y | 1.06 1.01 1.16 | 1.07 | 0/9 |
| V29R R99F | 2.51 2.03 2.21 | 2.25 | 2/9 (4.39) |
| S25T E32V V39N | n.d. n.d. n.d. | n.d. | 1/9 (4.68) |
| N37W S38C Y97R | n.d. n.d. 4.49 | 4.49 | 4/9 (4.10) |
| L30G R60D Q96F | n.d. n.d. n.d. | n.d. | 1/9 (4.82) |
| Y31C L102C | n.d. n.d. n.d. | n.d. | 0/9 |
| K24T R34P R99E | 2.02 1.23 1.37 | 1.54 | 0/9 |
| L30G R34W Q96K | n.d. n.d. n.d. | n.d. | 0/9 |
| S28D R34I T59W | 1.22 1.31 1.45 | 1.33 | 1/9 (3.67) |
| L30Q H98T L100A | 1.56 1.91 2.24 | 1.90 | 1/9 (3.77) |
| L30E N37R S38Y | n.d. n.d. n.d. | n.d. | 1/9 (3.74) |
| E32I Q96M R99V | n.d. n.d. 3.88 | 3.88 | 0/9 |
| R34W N37T V39I | 1.57 1.50 1.44 | 1.50 | 4/9 (3.85) |
| Q27Y S38V V39E | n.d. n.d. n.d. | n.d. | 1/9 (2.73) |
| S28Q S58E L100G | n.d. n.d. 4.86 | 4.86 | 4/9 (4.06) |
| K24T S33A | 1.67 1.67 1.52 | 1.62 | 1/9 (5.59) |
| S25E R99S P101Q | 3.39 3.05 n.d. | 3.22 | 4/9 (4.92) |
| S28V Y31T S38K | 5.09 4.07 3.73 | 4.29 | 4/9 (4.54) |
| S38G E61C S62F | n.d. n.d. n.d. | n.d. | 0/9 |
| S25P S28F Y97M | n.d. n.d. 4.25 | 4.25 | 0/9 |
| Y31K E61H H98L | n.d. n.d. n.d. | n.d. | 0/9 |
| L30V R99K | 1.29 1.29 1.39 | 1.32 | 2/9 (4.16) |
| K36M Q95R | 3.72 n.d. n.d. | 3.72 | 0/9 |
| E32P R99N L102S | n.d. n.d. n.d. | n.d. | 3/9 (4.41) |
| E32S S38Y Y97T | n.d. n.d. n.d. | n.d. | 2/9 (4.81) |
| L30K E32F R60N | n.d. n.d. n.d. | n.d. | 0/9 |

Excerpt, the first 3 entries:

| changes | replicates, log10 nM | mean log10 Kd (nM) | empty controls |
|---|---|---|---|
| S26I Y31K V39A | n.d. n.d. n.d. | n.d. | 2/9 (3.81) |
| Y97S | n.d. 3.36 4.49 | 3.93 | 4/9 (4.41) |
| Q27C V29Q Q96W | 1.75 1.66 1.79 | 1.73 | 1/9 (4.27) |

Parent in this assay: reference entry 0.65, copy in this library 1.68. Background: pairings of library AAYL50 with three empty control strains gave a value in 18% of cases (median 4.19, 5th percentile 2.99). Values in that range, when seen in few replicates, are hard to tell from nonspecific mating. The control count says in how many pairings with the empty strains this scFv gave a signal, with their mean in brackets.